Data: ChEMBL document CHEMBL6115009
Calls of active or inactive are those of the source.

Amino acid sequences for entries named in this document (tags omitted). A change or cut given only in a name is not applied to a line headed by its entry.
UniProt Q13224, whole entry, looked up: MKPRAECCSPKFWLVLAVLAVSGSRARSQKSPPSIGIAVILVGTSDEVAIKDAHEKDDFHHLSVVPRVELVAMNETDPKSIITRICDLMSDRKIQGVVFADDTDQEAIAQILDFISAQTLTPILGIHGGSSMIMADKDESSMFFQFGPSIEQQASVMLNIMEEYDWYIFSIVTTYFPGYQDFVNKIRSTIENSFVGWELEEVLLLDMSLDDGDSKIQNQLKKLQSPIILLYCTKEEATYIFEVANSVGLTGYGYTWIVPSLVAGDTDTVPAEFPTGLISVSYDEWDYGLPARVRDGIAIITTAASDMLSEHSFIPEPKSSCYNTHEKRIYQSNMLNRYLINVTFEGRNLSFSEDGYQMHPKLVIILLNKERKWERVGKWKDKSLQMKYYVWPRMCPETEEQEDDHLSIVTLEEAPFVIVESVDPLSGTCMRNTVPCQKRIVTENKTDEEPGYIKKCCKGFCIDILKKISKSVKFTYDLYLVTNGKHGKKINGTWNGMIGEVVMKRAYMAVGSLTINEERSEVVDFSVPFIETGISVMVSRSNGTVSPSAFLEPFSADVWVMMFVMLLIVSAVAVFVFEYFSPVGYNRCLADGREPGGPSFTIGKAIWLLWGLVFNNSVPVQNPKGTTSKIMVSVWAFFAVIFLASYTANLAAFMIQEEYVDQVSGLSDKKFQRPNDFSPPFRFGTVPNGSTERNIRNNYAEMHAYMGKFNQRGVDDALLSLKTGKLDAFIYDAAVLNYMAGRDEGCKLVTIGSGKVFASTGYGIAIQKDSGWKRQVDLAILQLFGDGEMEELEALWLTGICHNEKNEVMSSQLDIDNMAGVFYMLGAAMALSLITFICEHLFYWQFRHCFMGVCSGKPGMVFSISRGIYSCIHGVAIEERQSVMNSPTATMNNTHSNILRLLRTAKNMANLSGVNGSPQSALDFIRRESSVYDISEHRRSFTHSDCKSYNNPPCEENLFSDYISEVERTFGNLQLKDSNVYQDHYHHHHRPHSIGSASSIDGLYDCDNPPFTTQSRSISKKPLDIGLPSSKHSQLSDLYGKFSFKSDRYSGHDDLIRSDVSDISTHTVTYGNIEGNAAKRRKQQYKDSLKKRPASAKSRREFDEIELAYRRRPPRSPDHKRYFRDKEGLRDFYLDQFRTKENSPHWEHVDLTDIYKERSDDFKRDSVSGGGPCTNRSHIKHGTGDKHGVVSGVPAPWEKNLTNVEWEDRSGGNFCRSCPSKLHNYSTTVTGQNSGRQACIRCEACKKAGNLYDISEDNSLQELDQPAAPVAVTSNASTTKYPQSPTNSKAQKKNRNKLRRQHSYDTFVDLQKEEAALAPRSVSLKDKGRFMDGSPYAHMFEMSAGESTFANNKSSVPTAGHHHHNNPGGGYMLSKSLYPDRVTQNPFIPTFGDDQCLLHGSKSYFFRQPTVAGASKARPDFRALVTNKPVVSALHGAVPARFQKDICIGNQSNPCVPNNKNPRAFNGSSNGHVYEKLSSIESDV
UniProt Q14957: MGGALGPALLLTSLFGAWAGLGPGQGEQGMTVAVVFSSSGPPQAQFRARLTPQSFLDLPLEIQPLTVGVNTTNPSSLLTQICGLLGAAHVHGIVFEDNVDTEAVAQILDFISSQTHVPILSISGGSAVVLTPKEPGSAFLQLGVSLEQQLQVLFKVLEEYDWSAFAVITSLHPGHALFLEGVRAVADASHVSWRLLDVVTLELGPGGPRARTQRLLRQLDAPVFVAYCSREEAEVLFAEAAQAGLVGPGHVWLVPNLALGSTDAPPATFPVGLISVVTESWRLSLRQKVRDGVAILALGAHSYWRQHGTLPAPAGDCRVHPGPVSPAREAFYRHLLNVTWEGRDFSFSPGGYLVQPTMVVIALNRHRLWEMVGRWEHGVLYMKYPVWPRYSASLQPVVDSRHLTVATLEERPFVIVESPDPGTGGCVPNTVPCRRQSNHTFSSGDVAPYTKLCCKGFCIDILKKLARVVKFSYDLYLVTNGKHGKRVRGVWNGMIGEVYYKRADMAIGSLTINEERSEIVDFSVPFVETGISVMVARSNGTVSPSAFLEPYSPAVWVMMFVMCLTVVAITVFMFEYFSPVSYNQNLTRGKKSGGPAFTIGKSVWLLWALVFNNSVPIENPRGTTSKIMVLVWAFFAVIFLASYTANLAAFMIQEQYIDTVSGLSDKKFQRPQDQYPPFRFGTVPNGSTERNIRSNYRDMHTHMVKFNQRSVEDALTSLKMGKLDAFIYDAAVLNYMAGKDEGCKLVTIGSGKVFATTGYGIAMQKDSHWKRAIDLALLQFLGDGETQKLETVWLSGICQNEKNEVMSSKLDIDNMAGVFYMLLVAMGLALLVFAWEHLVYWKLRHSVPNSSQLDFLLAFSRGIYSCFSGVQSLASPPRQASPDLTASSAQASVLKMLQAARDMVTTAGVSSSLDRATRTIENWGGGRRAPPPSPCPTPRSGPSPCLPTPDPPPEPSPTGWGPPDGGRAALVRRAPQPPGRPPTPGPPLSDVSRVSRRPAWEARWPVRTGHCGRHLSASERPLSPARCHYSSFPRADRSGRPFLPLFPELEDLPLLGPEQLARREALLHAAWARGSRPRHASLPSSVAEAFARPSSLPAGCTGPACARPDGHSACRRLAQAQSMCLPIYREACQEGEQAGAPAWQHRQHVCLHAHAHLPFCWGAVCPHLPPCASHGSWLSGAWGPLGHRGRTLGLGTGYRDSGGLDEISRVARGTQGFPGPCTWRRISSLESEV
UniProt O15399, whole entry, looked up: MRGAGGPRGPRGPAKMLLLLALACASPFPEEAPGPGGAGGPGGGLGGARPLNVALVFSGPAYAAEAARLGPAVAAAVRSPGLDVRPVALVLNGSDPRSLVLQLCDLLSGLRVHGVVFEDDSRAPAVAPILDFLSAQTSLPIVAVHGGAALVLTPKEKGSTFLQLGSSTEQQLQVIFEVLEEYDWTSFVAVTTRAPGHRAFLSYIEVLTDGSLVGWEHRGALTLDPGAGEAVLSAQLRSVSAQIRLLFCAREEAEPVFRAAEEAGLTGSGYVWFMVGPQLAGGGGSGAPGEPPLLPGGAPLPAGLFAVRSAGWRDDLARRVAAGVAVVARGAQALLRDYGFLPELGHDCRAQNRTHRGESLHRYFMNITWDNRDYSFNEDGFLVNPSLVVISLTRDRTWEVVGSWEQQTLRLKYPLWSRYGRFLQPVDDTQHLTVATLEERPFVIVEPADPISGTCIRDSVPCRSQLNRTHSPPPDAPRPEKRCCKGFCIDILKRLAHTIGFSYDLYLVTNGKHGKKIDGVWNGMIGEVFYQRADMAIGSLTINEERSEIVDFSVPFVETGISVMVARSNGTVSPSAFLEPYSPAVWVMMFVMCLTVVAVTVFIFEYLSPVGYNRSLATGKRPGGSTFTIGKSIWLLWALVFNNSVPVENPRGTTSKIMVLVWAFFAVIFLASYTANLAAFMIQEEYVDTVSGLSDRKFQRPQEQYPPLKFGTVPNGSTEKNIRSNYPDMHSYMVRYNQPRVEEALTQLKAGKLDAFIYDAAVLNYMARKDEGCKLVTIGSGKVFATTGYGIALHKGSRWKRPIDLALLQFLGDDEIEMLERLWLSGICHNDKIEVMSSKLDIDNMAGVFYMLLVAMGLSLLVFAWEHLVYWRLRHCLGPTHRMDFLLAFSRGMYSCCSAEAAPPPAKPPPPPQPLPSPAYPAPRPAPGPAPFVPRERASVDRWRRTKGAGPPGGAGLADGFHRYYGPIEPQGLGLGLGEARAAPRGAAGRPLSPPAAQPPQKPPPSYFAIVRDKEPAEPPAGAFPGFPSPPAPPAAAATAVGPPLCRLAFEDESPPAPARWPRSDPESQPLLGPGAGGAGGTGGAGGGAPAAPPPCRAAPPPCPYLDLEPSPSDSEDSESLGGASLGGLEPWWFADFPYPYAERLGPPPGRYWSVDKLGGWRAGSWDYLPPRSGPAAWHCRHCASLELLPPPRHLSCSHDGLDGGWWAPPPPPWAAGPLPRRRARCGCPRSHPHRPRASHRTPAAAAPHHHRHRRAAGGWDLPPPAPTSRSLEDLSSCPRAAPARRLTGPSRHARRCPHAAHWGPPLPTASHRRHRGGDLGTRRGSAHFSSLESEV

Assays:
Type in all cases: cell-based
[1] = biological target: Glutamate NMDA receptor; GRIN1/GRIN2B (Homo sapiens) (UniProt Q05586+Q13224); assay: Antagonist activity at GluN1/GluN2B receptor (unknown origin) overexpressed in CHO cells assessed as inhibition of Ca2+ flux incubated for 24 hrs in presence of glycine/L-glutamate by FLIPR assay
[2] = biological target: Ionotropic glutamate receptor NMDA 1/2C (Homo sapiens) (UniProt Q05586+Q14957); assay: Antagonist activity at GluN1/GluN2C receptor (unknown origin) overexpressed in CHO cells assessed as inhibition of Ca2+ flux incubated for 24 hrs in presence of glycine/L-glutamate by FLIPR assay
[3] = biological target: Ionotropic glutamate receptor NMDA 1/2D (Homo sapiens) (UniProt Q05586+O15399); assay: Antagonist activity at GluN1/GluN2D receptor (unknown origin) overexpressed in CHO cells assessed as inhibition of Ca2+ flux incubated for 24 hrs in presence of glycine/L-glutamate by FLIPR assay

Measured: inhibition

CCC1=N[C@H](C)CC1(c1ccccc1)c1ccccc1
inactive: all assays above

CCC1=N[C@@H](C)CC1(c1ccccc1)c1ccccc1
inactive: all assays above
